Measurements published in patent publication US20230139883A1, “Peptides for Inducing Differentiation” (Shimadzu Corporation, priority 2020, published 2023).

Legend:
[1] = system: iPS-hFB; test: Differentiation induction of iPS cells into cardiomyocytes: observation of beating cell clusters; details: for day on which beating cell clusters were observed: Example 4: peptide + 5 ng/mL bFGF + Activin A on Day 1 (protocols 7, 8, 9); for state of beating compared among the groups: Example 4: peptide + bFGF + Activin A (protocols 7, 8, 9) and bFGF + Activin A (protocol 10)
[2] = system: iPS-hFB; test: Differentiation induction of iPS cells into cardiomyocytes: RT-qPCR of cardiomyocyte markers cTNT and Actinin
[3] = system: iPS-hFB; test: Differentiation induction of iPS cells into cardiomyocytes: Actinin immunostaining for sarcomere structures; assay type: cell-based; details: Day 23 cell clusters (FIGS. 6 and 7)
Protocol: Furthermore, on Day 23 Actinin immunostaining was used to observe whether cardiomyocyte-specific sarcomere structures were recognized. Specifically, Day 23 cell clusters were reduced to single cells by collagenase and Accumax treatments, and then the cells were seeded at 10000 cells/well to 24-well plates coated with fibronectin. The next day, the cells were fixed with 4% paraformaldehyde solution and permeabilized with 0.1% Triton-X/PBS. The cells were then subjected to blocking treatment with PBS containing 5% Donkey Serum, and 1% BSA. After washing with 0.01% Triton-X/PBS, mouse anti-Actinin antibody (Sigma) was added and the reaction was carried out at room temperature for 60 minutes. After that, the cells were washed with 0.01% Triton-X/PBS, Alexa594-modified Anti-mouse antibody (abcam) was added, and the reaction was carried out at room temperature for 60 minutes.

[4] = system: iPS-hFB; test: Differentiation induction of iPS cells into neurons: RT-qPCR of SYN1, MAP2 and Nr2f1; assay type: cell-based; details: for Nr2f1 gene expression level: 0.25 nM peptide on Day 3, Day 35; for MAP2 gene expression level / SYN1 gene expression level: 0.25 nM peptide, Day 35
Protocol: An attempt to apply 100nX to a differentiation induction system from iPS cells to neurons was made. […] A group in which G-MEM supplemented with 20% KSR (Thermo), 1xNEAA (Thermo), 0.1 mM 2-mercaptoethanol (Wako Pure Chemicals), 1 mM sodium pyruvate (Thermo), 20 μM Y27632 (Wako Pure Chemicals), 3 μM IWR-1-endo (Wako Pure Chemicals), 5 μM SB431542 (Wako Pure Chemicals) was added at 100 μL/well was prepared as a control group (FIG. 14, protocol 2). On Day 6, the entire medium was replaced with the medium of each condition containing no Y27632 (Wako Pure Chemicals). Likewise, the medium was exchanged at Day 10 and Day 14. The medium was removed on Day 18 and the cells added with DMEM/F12 (GlutaMax) (Thermo) containing 1% N-2 Supplement and 1% Chemically Defined Lipid Concentrate were transferred to EZSPHERE (AGC Technoglass) at 2 mL/well. On Day 21, 24, and 27, the medium was replaced with DMEM/F12 (GlutaMax) (Thermo) containing 1% N-2 Supplement. Further, On Day 30, and 33, the medium was replaced with DMEM/F12 (GlutaMax) (Thermo) containing 1% N-2 Supplement and 1% Chemically Defined Lipid Concentrate.

[5] = protocol 2: 0.05 or 0.5 μM peptide + Activin A on Day 1, no bFGF, Day 16 to Day 22
[6] = Example 2, protocol 2, Day 23, compared to protocols 1, 3 and 4
[7] = Example 4: 0.05 to 5 μM peptide in combination with bFGF, Day 23
[8] = Example 12: 0.0005, 0.005, 0.05 or 0.5 μM peptide, Day 23
[9] = Example 12: 0.0005 to 0.5 μM peptide + BMP4 + Activin A on Day 1, Day 23, compared to conventional protocol 1
[10] = compared to control protocol 2 (no bFGF)
[11] = compared to conventional protocol 1 (bFGF)

CAAELAALEAELAALEGVPGDNNGTRGKLYHLKNKLHRLKNAC [100n9]
day on which beating cell clusters were observed [1]: on or after Day 10 to Day 11 | state of beating compared among the groups [1]: no difference in the state of beating among the groups

HBD-100nX: heparan sulfate binding peptide WQPPRARIG (SEQ ID NO: 49) fused to 100nX (X is 9: SEQ ID NO: 9) (WQPPRARIGCAAELAALEAELAALEGVPGDNNGTRGKLYHLKNKLHRLKNAC)
day on which beating cell clusters were observed [1]: on or after Day 10 to Day 11 | state of beating compared among the groups [1]: no difference in the state of beating among the groups | cell clusters in which beating was observed [1, 5]: no less than 80% | state of beating [1, 5]: beating was observed over the entire cell clusters | concentration dependence of gene expression (cTNT, ACTN2) ([2]; Example 2, 0.05 or 0.5 μM peptide, Day 23): peptide concentration-dependent increase in gene expression | ACTN2 expression level [2, 6]: significantly increased | cTNT expression level [2, 6]: significantly increased | ACTN2 expression level, dependence on peptide concentration [2, 7]: increased dependent on peptide concentration | cTNT expression level, dependence on peptide concentration [2, 7]: increased dependent on peptide concentration | gene expression levels (cTNT, ACTN2), comparison among the peptides ([2]; Example 4: peptide in combination with bFGF, Day 23): highest value | gene expression levels (cTNT, ACTN2) ([2]; Example 4: peptide in combination with bFGF, Day 23, compared to conventional protocol 1): significantly increased | concentration dependence of gene expression (cTNT, ACTN2) [2, 8]: peptide concentration-dependent manner | ACTN2 expression level [2, 9]: significantly increased | cTNT expression level [2, 9]: significantly increased | sarcomere structure by Actinin immunostaining [3]: prominent sarcomere structure and the formation of highly functional cardiomyocytes | Nr2f1 gene expression level [4, 10]: significantly increased | Nr2f1 gene expression level [4, 11]: significantly increased | MAP2 gene expression level [4, 10]: significantly increased | SYN1 gene expression level [4, 10]: significantly increased | MAP2 gene expression level [4, 11]: similar | SYN1 gene expression level [4, 11]: similar | promotion of / contribution to neural differentiation ([4]; overall, relative to bFGF): as effective as or better than conventional bFGF

HBD-F3-100n9: heparan sulfate binding peptide WQPPRARIG (SEQ ID NO: 49) fused to F3-100n9 (SEQ ID NO: 27) (WQPPRARIGCAAELAALEAELAALEGVRPETMSQVGKLLVLKHRLGQLKRAC)
concentration dependence of gene expression (cTNT, ACTN2) [2, 8]: different response tendency | ACTN2 expression level [2, 9]: significantly increased | cTNT expression level [2, 9]: significantly increased

B1: 100nX-Dimer: a dimerized peptide of 100nX (SEQ ID NO: 9) (peptide)
chain 1: CAAELAALEAELAALEGVPGDNNGTRGKLYHLKNKLHRLKNAC
chain 2: B1 chain 1
modifications: dimerized
day on which beating cell clusters were observed [1]: on or after Day 10 to Day 11 | state of beating compared among the groups [1]: no difference in the state of beating among the groups
